Source: patent publication US8530461B2 (Boehringer Ingelheim International GmbH, priority 2011, dated 2013)

Protein sequences, listed by entry. Tags and fused reporters are not part of them. Residues count along the entry.
UniProt O00763, 129-2458 limits assumed: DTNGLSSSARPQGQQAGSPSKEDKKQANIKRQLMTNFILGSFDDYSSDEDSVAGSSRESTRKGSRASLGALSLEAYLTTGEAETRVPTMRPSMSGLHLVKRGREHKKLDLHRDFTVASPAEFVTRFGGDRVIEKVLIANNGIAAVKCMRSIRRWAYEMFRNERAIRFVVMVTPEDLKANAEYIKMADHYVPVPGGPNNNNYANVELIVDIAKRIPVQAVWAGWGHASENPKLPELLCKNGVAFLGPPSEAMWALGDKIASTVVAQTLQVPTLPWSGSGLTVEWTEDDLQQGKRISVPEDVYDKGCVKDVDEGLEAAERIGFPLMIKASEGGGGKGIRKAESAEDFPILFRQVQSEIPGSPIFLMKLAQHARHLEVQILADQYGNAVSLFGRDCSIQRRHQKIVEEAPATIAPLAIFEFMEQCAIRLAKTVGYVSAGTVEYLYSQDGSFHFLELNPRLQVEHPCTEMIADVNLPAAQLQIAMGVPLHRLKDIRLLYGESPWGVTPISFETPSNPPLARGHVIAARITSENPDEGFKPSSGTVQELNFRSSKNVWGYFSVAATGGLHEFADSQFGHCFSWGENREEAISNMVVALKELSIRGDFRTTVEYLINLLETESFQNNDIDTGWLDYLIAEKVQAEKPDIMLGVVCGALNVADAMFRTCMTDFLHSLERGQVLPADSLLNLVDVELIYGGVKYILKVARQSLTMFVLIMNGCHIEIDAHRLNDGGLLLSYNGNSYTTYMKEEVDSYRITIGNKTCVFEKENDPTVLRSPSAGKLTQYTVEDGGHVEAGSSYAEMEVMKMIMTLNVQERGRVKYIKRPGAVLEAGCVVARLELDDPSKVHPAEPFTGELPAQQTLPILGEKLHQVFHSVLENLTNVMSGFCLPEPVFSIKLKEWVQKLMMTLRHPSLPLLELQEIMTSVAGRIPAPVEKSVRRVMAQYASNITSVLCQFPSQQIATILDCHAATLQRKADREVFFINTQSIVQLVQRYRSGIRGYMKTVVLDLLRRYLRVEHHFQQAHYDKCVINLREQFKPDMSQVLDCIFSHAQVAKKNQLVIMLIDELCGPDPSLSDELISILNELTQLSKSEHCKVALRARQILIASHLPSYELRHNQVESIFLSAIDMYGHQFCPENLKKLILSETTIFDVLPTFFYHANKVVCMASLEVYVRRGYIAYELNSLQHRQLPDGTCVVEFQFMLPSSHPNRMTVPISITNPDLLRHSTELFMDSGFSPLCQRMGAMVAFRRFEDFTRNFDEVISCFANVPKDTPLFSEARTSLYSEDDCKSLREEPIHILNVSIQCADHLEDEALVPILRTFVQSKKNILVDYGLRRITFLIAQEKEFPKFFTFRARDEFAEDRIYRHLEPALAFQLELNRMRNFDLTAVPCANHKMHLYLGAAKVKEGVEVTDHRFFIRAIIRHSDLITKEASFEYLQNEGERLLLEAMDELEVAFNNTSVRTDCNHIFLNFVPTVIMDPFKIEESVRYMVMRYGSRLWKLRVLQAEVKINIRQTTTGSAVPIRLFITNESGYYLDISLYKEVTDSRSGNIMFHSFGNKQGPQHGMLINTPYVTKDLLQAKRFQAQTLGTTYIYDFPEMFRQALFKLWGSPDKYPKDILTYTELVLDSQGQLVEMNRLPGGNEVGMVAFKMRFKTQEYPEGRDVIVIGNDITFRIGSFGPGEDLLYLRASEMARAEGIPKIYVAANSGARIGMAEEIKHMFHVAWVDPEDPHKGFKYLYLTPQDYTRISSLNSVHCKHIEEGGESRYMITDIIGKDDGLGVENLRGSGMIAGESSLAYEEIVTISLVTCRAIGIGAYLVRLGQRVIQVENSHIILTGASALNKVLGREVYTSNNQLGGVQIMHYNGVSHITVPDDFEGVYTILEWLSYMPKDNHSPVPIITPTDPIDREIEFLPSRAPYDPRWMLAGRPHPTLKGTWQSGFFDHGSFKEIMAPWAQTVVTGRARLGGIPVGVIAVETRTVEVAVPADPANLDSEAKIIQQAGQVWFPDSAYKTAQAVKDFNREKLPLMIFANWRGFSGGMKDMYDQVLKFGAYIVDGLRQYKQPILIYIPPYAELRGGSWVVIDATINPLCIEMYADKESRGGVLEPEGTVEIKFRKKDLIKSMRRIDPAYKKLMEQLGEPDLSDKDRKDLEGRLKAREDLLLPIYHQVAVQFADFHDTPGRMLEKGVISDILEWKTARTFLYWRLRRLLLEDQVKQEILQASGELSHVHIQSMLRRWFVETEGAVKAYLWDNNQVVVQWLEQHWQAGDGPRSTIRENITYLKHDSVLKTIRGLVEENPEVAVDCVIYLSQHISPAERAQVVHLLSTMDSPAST

Target: human ACC2 (Homo sapiens, UniProt O00763)
Assay: ACC2 assay, spectrophotometric 384 well assay (NADH-linked, coupled lactate dehydrogenase/pyruvate kinase)
Details: human ACC2 construct lacking 128 N-terminal amino acids, 25° C., 340 nm, 15 minutes
Protocol: Spectrophotometric 384 Well Assay
Malonyl CoA formation by acetyl CoA carboxylases is stoichometrically linked to the consumption of ATP. ACC2 activity is measured in a NADH-linked kinetic method measuring ADP generated during the ACC reaction using a coupled lactate dehydrogenase/pyruvate kinase reaction.
For biological testing, a human ACC2 construct which lacks the 128 amino acids at the N-terminus for increased solubility (nt 385-6966 in Genbank entry AJ575592) is cloned. The protein is then expressed in insect cells using a baculoviral expression system. Protein purification is performed by anion exchange.
All compounds are dissolved in dimethyl sulfoxide (DMSO) to a concentration of 10 mM.
Assay reactions are then carried out in 384-well plates, with hACC2 in an appropriate dilution and at final assay concentrations (f.c.) of 100 mM Tris (pH 7.5), 10 mM trisodium citrate, 25 mM KHCO3, 10 mM MgCl2, 0.5 mg/ml BSA, 3.75 mM reduced L-glutathione, 15 U/ml lactate dehydrogenase, 0.5 mM phosphoenolpyruvate, 15 U/ml pyruvate kinase, compounds at different concentrations at final DMSO concentrations of 1%.
The enzymatic reaction is then started by addition of a mixture of NADH, acetyl Coenzyme A (both […].) and ATP (500 uM f.c.). The decrease of the optical density (slope S) is then determined at 25° C. at a wavelength of 340 nm over 15 minutes in a spectrophotometric reader. […]

- IC50: 1460 nM
Structure (SMILES): CCOc1ccc(OC2CN(c3ccc([C@H](C)NC(=O)N4CC(C)(O)C4)cc3)C2)cc1
